Experimental data: patent US10022359B2, “1,9-diazaspiro undecane compounds having multimodal activity against pain” (LABORATORIOS DEL DR. ESTEVE S.A., priority 2014, dated 2018)

tested on: human σ1 receptor and human μ-opioid receptor; test: Human σ1 receptor and human μ-opioid receptor radioligand assays (dual binding); set-up: key to the marks not given beside the values; conditions: combined class for Ki-μ ([3H]-DAMGO, transfected CHO-K1 membranes) and Ki-σ1 ([3H](+)-pentazocine, transfected HEK-293 membranes)

Compound | μ and σ1 dual binding
O=C(Cc1ccccc1)N1CCOCC12CCN(CCc1ccccc1)CC2 | ++
c1ccc(CN2CCOCC23CCN(CCc2ccncc2)CC3)cc1 | ++
FC(F)(F)c1ccc(CCN2CCC3(CC2)COCCN3c2ccccc2)cn1 | ++
c1ccc(N2CCOCC23CCN(CCc2ccccn2)CC3)cc1 | ++
c1ccc(N2CCOCC23CCN(CCc2ccncc2)CC3)cc1 | ++
c1ccc(CN2CCC3(CC2)COCCN3c2ccccc2)cc1 | ++
c1ccc(CCN2CCC3(CC2)COCCN3CC2CC2)cc1 | ++
O=C(CC1CC1)N1CCOCC12CCN(CCc1ccccc1)CC2 | ++
O=C(c1nccs1)N1CCOCC12CCN(CCc1ccccc1)CC2 | ++
c1ccc(CN2CCOCC23CCN(CCc2ccccn2)CC3)cc1 | ++
CC(=O)Nc1ccc(CN2CCOCC23CCN(CCc2ccccc2)CC3)cc1 | ++
O=C(C1CC1)N1CCOCC12CCN(CCc1ccccc1)CC2 | ++
COc1ccc(CN2CCOCC23CCN(CCc2ccccc2)CC3)cc1 | ++
O=C(c1ccccc1)N1CCOCC12CCN(Cc1ccccc1)CC2 | ++
O=C(c1ccccc1F)N1CCOCC12CCN(CCc1ccccc1)CC2 | ++
c1ccc(N2CCOCC23CCN(CCc2cccnc2)CC3)cc1 | ++
